The entries are a selection whose mix differs from that of the whole data set. Some tests of the compounds listed are not included; inactive here does not mean inactive elsewhere. Activity calls are given as the source filed them. Calls follow the shape of the dose curve; as a rule, active = well fitted curve in the direction sought with a large enough effect; inconclusive = small, poorly fitted or top-dose-only effect, or another doubt; inactive = no such curve, though single readings can be large or run the other way.

Sequences of proteins named here, by UniProt entry; tags and fusion partners are left off.
UniProt P51570, whole entry: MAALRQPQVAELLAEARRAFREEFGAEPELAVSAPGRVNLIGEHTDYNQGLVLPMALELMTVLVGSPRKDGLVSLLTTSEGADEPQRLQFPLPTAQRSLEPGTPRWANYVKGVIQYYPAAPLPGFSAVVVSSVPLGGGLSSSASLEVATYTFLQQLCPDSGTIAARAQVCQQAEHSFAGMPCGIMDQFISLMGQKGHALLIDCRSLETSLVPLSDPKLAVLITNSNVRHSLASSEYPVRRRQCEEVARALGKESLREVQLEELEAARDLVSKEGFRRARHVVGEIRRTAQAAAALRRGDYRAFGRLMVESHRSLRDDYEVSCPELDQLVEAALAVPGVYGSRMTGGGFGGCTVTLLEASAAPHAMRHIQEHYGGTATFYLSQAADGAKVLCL

This experiment has as its target Galactokinase (Homo sapiens) (UniProt P51570). Description: qHTS Assay for Inhibitors of Human Galactokinase (GALK): NCGC Sytravon Library Screen.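 Also: plate controls were full GALK reaction for no effect and reaction lacking GALK for full effect.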 The following applies: recombinant GALK, Kinase-Glo ATP luminescence, 1 h; at 57.5 µM (top of the series). From the text:
Inherited deficiency of galactose-1-phosphate uridyltransferase (GALT) can result in a potentially lethal disorder called Classic Galactosemia (OMIM 230400). Several lines of evidence indicate that an elevated level of galactose-1-phosphate (gal-1-p), the product of galactokinase (GALK), is a major, if not sole, pathogenic mechanism in patients with classic galactosemia. Therefore, finding inhibitors of GALK is a potential novel therapy for this inherent metabolic disease and is the long term goal of this project. This screen is run against the NCGC Sytravon compound library collection. GALK (provided by Kent Lai) was assayed using ATP and D-(+)-Galactose (Sigma-Aldrich cat# G0750) as substrates. Promega Kinase-Glo Plus technology was used to detect kinase activity. Reactions with and without GALK were used as negative and positive controls together with Protein Tyrosine Phosphatase CD45 inhibitor (EMD Bioscience cat# 540215) which is shown to inhibit GALK activity. Decrease in activity corresponds to inhibition of the enzyme is the desired outcome for this assay. NIH Molecular Libraries Probe Production Network [MLPCN] NIH Chemical Genomics Center [NCGC] Grant: R03 MH085689-01 PI Name: Kent Lai Ph.D., University of Utah
NCGC Assay Protocol Summary: Three uL/well of ATP-buffer solution (35 uM ATP, 20mM HEPES pH8.0, 5 mM MgCl2, 60 mM NaCl, 1 mM DTT, 0.01% BSA final concentration) was dispensed into 1536-well, assay plates (Greiner, solid white medium-binding plates) with Aurora Discovery BioRAPTR Flying Reagent Dispenser (FRD; Beckton-Dickenson). Compound solution (23 nL) was transferred to the assay plate using the Kalypsys 1536-pin tool. One uL/well GALK-galactose solution (5 nM GALK, 100 uM galactose, 20 mM HEPES pH8.0, 5 mM MgCl2, 60 mM NaCl, 1 mM DTT, 0.01% BSA final concentration) was then added using the FRD yielding a total kinase reaction volume of 4 uL/ well. After 1 hour of room temperature incubation, 4 uL Kinase-Glo Plus reagent was added for a final assay volume of 8 uL/ well. Luminescence was detected with the ViewLux plate reader (Perkin Elmer, Waltham, MA) after 10 min incubation using a 1 sec exposure time and 2x binning.
Background: Quantitative high-throughput screening tests each substance at several concentrations.
Turning to `CN(C)C1(CNC(=O)c2ccccc2F)CCCCC1`, the activity, negative = inhibition is inactive: 6.85%.

`CN(C)C1(CNC(=O)c2cccc(Cl)c2)CCCCC1`: the activity, negative = inhibition is inactive: -6.23%.

Turning to `CCCCOc1ccccc1C(=O)NCC1(N(C)C)CCCCC1`, the activity, negative = inhibition was inactive: 1.59%.

As for `CN(C)C1(CNC(=O)c2ccccc2[N+](=O)[O-])CCCCC1`, the activity, negative = inhibition was inactive: 3.08%.

As to `COc1ccc(C(=O)NCC2(N(C)C)CCCCC2)cc1Cl`, the activity, negative = inhibition was inactive: 2.37%.

With `CC(C)Oc1ccc(C(=O)NCC2(N(C)C)CCCCC2)cc1`, the activity, negative = inhibition is inactive: 0%.

As to `COc1cc(C(=O)NCC2(N(C)C)CCCCC2)cc(OC)c1OC`, the activity, negative = inhibition was inactive: -4.19%.

On to `Cc1cccc(C(=O)NCC2(N(C)C)CCCCC2)c1`, for which the activity, negative = inhibition is inactive: 0%.

Take `CC(C)COc1ccc(C(=O)NCC2(N(C)C)CCCCC2)cc1`: the activity, negative = inhibition is inactive: -2.13%.

Turning to `COc1cccc(C(=O)NCC2(N3CCOCC3)CCCCC2)c1`, the activity, negative = inhibition was inactive: 0.505%.

The values are drawn from PubChem BioAssay AID1347072 (National Center for Advancing Translational Sciences (NCATS), 2019).
